Laboratory results from patent US5466809A, “Process for the preparation of immunostimulating swainsonine analogs” (Toronto Research Chemicals, Inc., priority 1994, dated 1995).

Molecular target: T1, Jack Bean alpha-mannosidase (Canavalia ensiformis, UniProt C0HJB3)
T1 sequence (C0HJB3 1-981): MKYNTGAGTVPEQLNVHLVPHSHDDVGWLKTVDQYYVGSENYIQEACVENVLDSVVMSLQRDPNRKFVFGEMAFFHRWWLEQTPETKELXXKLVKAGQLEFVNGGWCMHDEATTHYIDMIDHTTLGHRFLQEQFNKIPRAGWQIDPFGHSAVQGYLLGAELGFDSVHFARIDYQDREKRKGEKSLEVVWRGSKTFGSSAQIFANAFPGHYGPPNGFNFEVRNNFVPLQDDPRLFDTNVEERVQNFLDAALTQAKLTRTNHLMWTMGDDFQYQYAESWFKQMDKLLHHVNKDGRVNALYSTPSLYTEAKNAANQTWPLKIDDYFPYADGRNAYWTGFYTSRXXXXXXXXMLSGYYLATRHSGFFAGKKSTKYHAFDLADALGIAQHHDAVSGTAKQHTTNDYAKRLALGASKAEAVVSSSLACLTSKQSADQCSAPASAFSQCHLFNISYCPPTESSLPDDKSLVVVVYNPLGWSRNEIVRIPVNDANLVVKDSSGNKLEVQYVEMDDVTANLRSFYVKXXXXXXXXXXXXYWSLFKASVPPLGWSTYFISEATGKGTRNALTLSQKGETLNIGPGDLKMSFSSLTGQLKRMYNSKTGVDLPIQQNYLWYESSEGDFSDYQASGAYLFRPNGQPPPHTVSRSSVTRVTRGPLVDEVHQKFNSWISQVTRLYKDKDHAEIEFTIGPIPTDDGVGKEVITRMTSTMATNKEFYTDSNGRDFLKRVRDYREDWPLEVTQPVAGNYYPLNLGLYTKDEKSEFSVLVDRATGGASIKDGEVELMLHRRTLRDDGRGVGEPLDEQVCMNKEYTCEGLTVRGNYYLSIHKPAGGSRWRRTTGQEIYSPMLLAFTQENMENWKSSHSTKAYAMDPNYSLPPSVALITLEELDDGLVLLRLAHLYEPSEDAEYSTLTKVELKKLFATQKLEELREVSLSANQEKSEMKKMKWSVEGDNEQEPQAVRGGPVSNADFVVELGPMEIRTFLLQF
Test: Jack Bean alpha-mannosidase assay
Type: biochemical
Details: pH 6.0, 37° C., 30 minutes, p-nitrophenyl-alpha-D-mannopyranoside substrate; read-out: D50 Values (Inhibition), J.B. mannosidase (converted)
Procedure: Jack Bean alpha-Mannosidase Assay. Samples of swainsonine and its analogues (100, 30, 10, 3, 1, 0.3 or 0.1 ng) were dissolved in a total volume of 75 ul and transferred into individual wells in a 96 well plate. A volume (37.5 ul) of 0.05M sodium acetate (pH 6.0) was added to each well, followed by 37.5 ul of 0.01M p-nitrophenyl-alpha-D-mannopyanoside, and then 10 ul of a 1:400 dilution of Jack Bean alpha-mannosidase. After thoroughly shaking to mix, the mixture was incubated at 37° C. for 30 minutes. The reaction was stopped by the addition of 150 ul of 0.5M sodium carbonate (pH 10.0). The absorbance at 405 nm of the solution in the wells was determined in an ELISA plate reader.

O[C@H]1[C@H]2[C@H](O)CCCN2C[C@H]1O [swainsonine, 1S-8a-β-octahydroindolizine-1-alpha-2-alpha-8-β-triol]
IC50: 404 nM
